The results in this text go back to patent publication US20190216767A1, “TOPICAL THERAPY FOR THE TREATMENT OF SKIN KERATOSES USING NANOPARTICLES OF TAXANES” (DFB SORIA, LLC, priority 2017, published 2019).

This data set can be described thus: Solubility of the active in the receptor fluid. The class given is physicochemical. To be noted: 96 wt % PBS at pH 7.4 and 4 wt % hydroxyl propyl beta cyclodextrin.

For paclitaxel, the “solubility of the active in the receptor fluid” value is about 0.4 µg/mL.
